# Apparent affinities of Ab-14 variants for a coronavirus HR2 peptide

Target peptide (SARS-CoV-2 spike, HR2 region): PDVDLGDISGINAS

The variants keep the heavy chain, the linker and the frameworks of Ab-14 (scFv order VH, a (GGGGS)3 linker, VL).
VH: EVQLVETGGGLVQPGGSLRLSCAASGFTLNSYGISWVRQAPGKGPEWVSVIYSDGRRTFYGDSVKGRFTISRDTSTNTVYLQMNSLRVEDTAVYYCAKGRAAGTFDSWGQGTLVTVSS
VL: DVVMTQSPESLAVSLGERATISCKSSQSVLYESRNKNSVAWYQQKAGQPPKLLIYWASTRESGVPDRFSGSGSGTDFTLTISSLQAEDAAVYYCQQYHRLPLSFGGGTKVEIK

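The parent was found by panning a naive human phage display library on the peptide. In library AAYL50, one, two or three CDR residues were substituted; doubles and triples were drawn at random. The assay is AlphaSeq: two haploid yeast populations carry antibody and antigen on their surface. The frequency of each diploid, read from paired DNA barcodes, reflects how well the two displayed proteins bind. Read counts were normalised to the haploid input and turned into Kd by a linear fit to BCL2-family pairs of known affinity, for each replicate. The assay was run in three technical replicates.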

Each variant is given by its three light chain CDRs, as the data file delimits them; those of the parent are KSSQSVLYESRNKNSVA, WASTRES, QQYHRLPLS.
Every variant below is changed at A40 of the VL (sequential numbering).
Values are log10 of the apparent Kd in nM; lower means stronger binding.
A mean of the replicates is given; it leaves out those without a signal.
"nd" means that the variant was in the library but no mating with the target was seen in any replicate; the authors take this as a sign of poor binding, and no number exists.

| CDR-L1 | CDR-L2 | CDR-L3 | mean, log10 nM | detected |
|---|---|---|---|---|
| KSSQSPLYESRNKNSVR | WATTRES | QQYHRLPLS | nd | 0 of 3 |
| WSSQSVLYESRNKGSVQ | WASTRES | QQYHRLPLS | 3.46 | 1 of 3 |
| KSSQSVLYESHNKNSVT | WASTRES | QQYHRLPLS | 3.31 | 2 of 3 |
| KSSQGVLYESRNKNSVW | WASTRES | QQYHRLPLS | nd | 0 of 3 |
| KSSQSVLYESRNVNSVP | WASTRES | QPYHRLPLS | 4.71 | 1 of 3 |
| KSSQSVLLESCNKNSVH | WASTRES | QQYHRLPLS | nd | 0 of 3 |
| KSSQSYLYESRNKNSVS | WASTRES | QCYHRLPLS | nd | 0 of 3 |
| KSSQSVCYESRNKNSVK | GASTRES | QQYHRLPLS | 4.76 | 3 of 3 |
| KSSQSVKYESRNKNSVK | WASTRKS | QQYHRLPLS | nd | 0 of 3 |
| GSSQSVLYESRNKNSVC | IASTRES | QQYHRLPLS | 4.11 | 1 of 3 |
| KSSQTVLYESRNKNSVR | WASTRES | QQYHRSPLS | nd | 0 of 3 |
| KSSQSVLYESRNHNLVM | WASTRES | QQYHRLPLS | nd | 0 of 3 |
| KSSQSVLYESRNKNYVV | WASTRES | QQYHRLELS | nd | 0 of 3 |
| KISQSVLYESRNKNSVL | WASTRES | QQYHRLPLS | 3.67 | 1 of 3 |
| KSSQSVLYESRNKNSVG | WASTRES | QQYHRAPLI | nd | 0 of 3 |
| KSSQSVLYQSRNKNSVR | WASTRES | QQYHNLPLS | nd | 0 of 3 |
| KSSQSVLYESRNKNSVW | WFKTRES | QQYHRLPLS | nd | 0 of 3 |
| KSSQSVLYESQNKNSVS | WASTRES | QQYHRLSLS | nd | 0 of 3 |
| KSSQSVLYESRNKNEVN | WASTRES | FQYHRLPLS | 4.43 | 2 of 3 |
| KSSQSVVYESRNKNSVL | WASTRES | QQYSRLPLS | nd | 0 of 3 |
| KSAQSVLYESRNKNSVV | WASTRES | QQYHRSPLS | nd | 0 of 3 |
| KSSQSKLYESRNFNSVV | WASTRES | QQYHRLPLS | 3.10 | 1 of 3 |
| KSSQSVLYYSRNKNSVF | WAHTRES | QQYHRLPLS | nd | 0 of 3 |
| KSSQSVLYESRNKNSVW | WASTRES | QQGHRPPLS | 3.91 | 1 of 3 |
| KSSQSTLYESRNKNSVH | WASTRES | QQYHRLPLS | 5.32 | 2 of 3 |
| KSSQSVLYESRNKNSVS | WASTRKS | AQYHRLPLS | nd | 0 of 3 |
| KSSQSVLYESRNKNSVH | TASTRES | QQYHRLPLS | 4.43 | 1 of 3 |
| KSSQSVLYESRNKNSVD | WASTRES | QQYVRLPGS | nd | 0 of 3 |
| KSSQSVLYESRNKNSVR | WASTRES | QQTLRLPLS | nd | 0 of 3 |
| KSSQSVLLESRNKNSVC | WASTREC | QQYHRLPLS | 3.98 | 3 of 3 |
| KSSQSELYESRNKNSVD | WASNRES | QQYHRLPLS | nd | 0 of 3 |
| KSTQSVLYESRVKNSVE | WASTRES | QQYHRLPLS | nd | 0 of 3 |
| KSSQTVLYESRNKNSVV | WAPTRES | QQYHRLPLS | nd | 0 of 3 |
| KSSQSVLYESRNKNSVP | WASTRTM | QQYHRLPLS | nd | 0 of 3 |
| KSSQSVLYESRNKNSVP | WACTRES | QQYHRLPLS | 3.52 | 1 of 3 |
| KSSQSVLYESRNKNSVC | WASTRES | IQYPRLPLS | nd | 0 of 3 |
| KSSQSVLYPSRNKNSVF | WASTRES | QQYHRLPLS | 5.26 | 1 of 3 |
| KSSQSDLYESRNKNSVE | PASTRES | QQYHRLPLS | 5.53 | 1 of 3 |
| KSVQSVLYESRNKNSVT | WASTRES | QGYHRLPLS | 4.09 | 1 of 3 |
| KSSPSVLDESRNKNSVS | WASTRES | QQYHRLPLS | 3.79 | 3 of 3 |
| KNSQSVLYESRNKNSVH | WASTRES | QQYHRLPQS | 4.11 | 1 of 3 |
| KSSQSVLYESRNKNSVP | WASPRES | QQYKRLPLS | nd | 0 of 3 |
| KSSQSVLYESRNKNSVQ | WASTREG | QQYHRLPLE | nd | 0 of 3 |
| KSSQSVLYESRNKNSVT | WASTRES | QQYCRLPLW | nd | 0 of 3 |
| KSTQSVLYEKRNKNSVS | WASTRES | QQYHRLPLS | nd | 0 of 3 |
| KSSDSVLYESRNKNAVN | WASTRES | QQYHRLPLS | 5.27 | 2 of 3 |

Picked from the list: the 3 lowest averages where every replicate gave a value.

{"CDR-L1": "KSSPSVLDESRNKNSVS", "CDR-L2": "WASTRES", "CDR-L3": "QQYHRLPLS", "mean, log10 nM": "3.79", "detected": "3 of 3"}
{"CDR-L1": "KSSQSVLLESRNKNSVC", "CDR-L2": "WASTREC", "CDR-L3": "QQYHRLPLS", "mean, log10 nM": "3.98", "detected": "3 of 3"}
{"CDR-L1": "KSSQSVCYESRNKNSVK", "CDR-L2": "GASTRES", "CDR-L3": "QQYHRLPLS", "mean, log10 nM": "4.76", "detected": "3 of 3"}

Nonspecific signal, from three strains lacking the peptide, appeared in 18% of pairings of library AAYL50, centred on 4.19 (5% of these signals below 2.99); values are not corrected for it.

Values reported by Engelhart et al. 2022, doi:10.1038/s41597-022-01779-4 (FLAb copy).